The text below walks through data of patent US5015659A, “Thienylacetic acid derivatives, process for the preparation thereof, the use thereof, and pharmaceuticals containing these and the preparation thereof” (Cassella Aktiengesellschaft, priority 1989, dated 1991).

The subject of the test is glycine receptor. The experiment in a line: Receptor-binding studies in vitro, rat cortex synaptosomes. To be noted: listed as piracetam.

As for `NC(=O)CN1CCCC1=O` [Piracetam, reference compound], the “Binding to glycine receptors in the brain (in words)” value was “inactive”.
